Reference: PubChem BioAssay AID624464 (National Center for Advancing Translational Sciences (NCATS), 2012)
The list shows a part of the results, in another mix than the full data. The source made the active and inactive calls. No stated cut-off is given here; in the data, active means potentiation above about 50%; inconclusive means mostly about 30% to 49%; inactive means weaker than that.

Protein sequences, listed by entry. Tags and fused reporters are not part of them.
UniProt P14416, whole entry: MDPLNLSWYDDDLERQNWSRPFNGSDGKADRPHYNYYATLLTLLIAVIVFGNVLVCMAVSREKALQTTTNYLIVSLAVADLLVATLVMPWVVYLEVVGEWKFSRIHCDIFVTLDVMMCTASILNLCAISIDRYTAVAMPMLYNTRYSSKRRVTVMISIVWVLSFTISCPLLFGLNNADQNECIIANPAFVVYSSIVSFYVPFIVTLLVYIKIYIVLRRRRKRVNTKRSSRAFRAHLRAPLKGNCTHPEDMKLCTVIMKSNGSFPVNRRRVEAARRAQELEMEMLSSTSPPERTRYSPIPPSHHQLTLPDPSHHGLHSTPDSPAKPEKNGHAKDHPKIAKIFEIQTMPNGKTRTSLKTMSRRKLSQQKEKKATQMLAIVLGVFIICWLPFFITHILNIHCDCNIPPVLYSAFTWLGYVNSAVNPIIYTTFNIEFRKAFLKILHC

Molecular target: D(2) dopamine receptor (Homo sapiens) (UniProt P14416)
Assay: Beta-Arrestin HTS for Positive Allosteric Modulators of the Human D2 Dopamine Receptor: Potentiators
Details: DiscoveRx D2 beta-arrestin cells, luminescence, 90 min; hits give high values; 100% = 57 uM dopamine signal
From the text: There is great interest in identifying small molecule ligands for G-protein coupled receptors (GPCRs) as nearly 50% of all FDA-approved drugs target these important receptor proteins. […] Amongst the dopamine receptors (DARs), the D2 is arguably one of the most validated drug targets in neurology and psychiatry. For instance, all receptor-based antiparkinsonian drugs primarily work via stimulating the D2 DAR, whereas all FDA-approved antipsychotic agents are antagonists of this receptor. The D2 DAR is also therapeutically targeted in other disorders such as restless legs syndrome, tardive dyskinesia, Tourette's syndrome, and hyperprolactinemia.
To this end, a miniaturized qHTS screen was developed to be screened against the Molecular Libraries Small Molecule Repository (MLSMR). This assay seeks to identify potentiators against the D2 DAR.
NIH Molecular Libraries Probe Production Network [MLPCN]
NIH Chemical Genomics Center [NCGC]
PI Name: David Sibley, National Institutes of Neurological Disorders and Stroke
DiscoveRx D2 cells were thawed from frozen stock and seeded at 2,100 cells/ 3 uL/well media (DiscoveRx Plating Reagent 2) with MultiDrop Combi dispenser (Thermo Scientific, Logan, UT) onto white tissue culture treated 1536-well Aurora plates (Brooks Automation, Chelmsford, MA) and allowed to attach overnight at 37 deg C, 5% CO2. Next, 23 nL/well of compound solutions in DMSO were added with a pintool transfer (Kalypsis, San Diego, CA). As the positive control, 1 uL/well dopamine (EC100, 57 uM final concentration) diluted in buffer (HBSS + 10 mM HEPES + SMB + 0.1 %Tween-20) was dispensed to 1 column of each plate. EC20 (Dopamine at 50 nM final concentration) was dispensed to the rest of the plate except columns 1 &2 which were used as negative control (EC=0, buffer only), 1 uL/well as well. The cells were stimulated by compounds and dopamine for 90 minutes at 37 deg C, 5% CO2, after which 1.5 uL/well of DiscoveRx detection reagent was added with BioRAPTR FRD dispenser. The detection reagent was prepared by mixing of Galacton Star Substrate, Emerald II solution and PathHunter buffer (supplied by the assay kit) together at 1:5:19 proportion accordingly just prior to dispensing. The plates were incubated at ambient temperature for 1 hour and then the luminescent signal was read on ViewLux plate reader (PerkinElmer, Waltham, MA).

| SMILES | potentiation |
| --- | --- |
| c1ccc(-c2nn[nH]n2)c(-c2nn[nH]n2)c1 | inactive: -2.38% |
| Cc1ccc(NP(=O)(Oc2cccc(C)c2)Oc2cccc(C)c2)nc1 | inactive: -4.27% |
| O=C(NC1CCS(=O)(=O)C1)NP(=S)(Oc1ccccc1)Oc1ccccc1 (stereo not drawn) | inactive: -1.83% |
| CCNC(=S)/N=C(\N)N[N+](=O)[O-] | inactive: -5.63% |
| COc1ccc(OP(C)(=O)Nc2ccc(SC(F)(F)F)cc2)cc1 (stereo not drawn) | inactive: 2.54% |
| O=P1(N(CCCl)CCCl)OCCC2CCCCN21 (stereo not drawn) | inactive: -9.16% |
| CCOC(=O)c1ccc(NP(C)(=O)Oc2ccc(F)cc2)cc1 (stereo not drawn) | inactive: -8.75% |
| O=C(OC1CN2CCC1CC2)c1ccccc1 (stereo not drawn) | inactive: -7.29% |
| CCC(=O)N1C2C3N(C(=O)CC)C1C1N(C(=O)CC)C(C(N1C(=O)CC)N3C(=O)CC)N2C(=O)CC | inactive: 2.74% |
| CCN(CC)CCCOC(=O)C(O)(c1ccccc1)C1CCCCC1 (stereo not drawn) | inactive: -34.3% |
| COC(=O)c1cc2c(s1)N=C(c1ccccc1)N(C)P2(=O)N1CCOCC1 (stereo not drawn) | inactive: 16% |
| Cc1c([N+](=O)[O-])cc([N+](=O)[O-])c(Br)c1[N+](=O)[O-] | inactive: -39.4% |
| Cc1ccc(OP(=O)(Nc2ccccn2)Oc2ccc(C)cc2)cc1 | inactive: -10.4% |
| CC(=O)NC(SC(=S)N(CC(C)C)CC(C)C)C(Cl)(Cl)Cl (stereo not drawn) | inactive: 2.69% |
| CC(NC(=O)COC(=O)C(O)(c1ccccc1)c1ccccc1)c1ccccc1 (stereo not drawn) | inactive: -2.81% |
| Cc1ccccc1OP(=O)(Nc1ccccn1)Oc1ccccc1C | inactive: 4.21% |
| O=c1c2cc([N+](=O)[O-])ccc2[nH]c2c([N+](=O)[O-])cc([N+](=O)[O-])cc12 | inactive: 11.5% |
| CCCCCOc1ccc(NP(C)(=O)Oc2ccc(Cl)cc2Cl)cc1 (stereo not drawn) | inactive: -11.9% |
| CN(C)C(=O)Oc1noc2ccccc12 | inactive: -6.28% |
| CP(=O)(Nc1ccccc1)Oc1ccc(F)cc1 (stereo not drawn) | inactive: -18.2% |
| O=P1(Nc2nc3ccc(Cl)cc3s2)COc2ccccc2O1 (stereo not drawn) | inactive: -6.38% |
| CCOc1ccc(C2=NCC(CBr)S2)cc1 (stereo not drawn) | inactive: -4.99% |
| CC(C)(C)C(=O)NC(Sc1ccccc1)C(Cl)(Cl)Cl (stereo not drawn) | inactive: -6.2% |
| CC(C)c1ccc(OP(C)(=O)Nc2ccc(SC(F)(F)F)cc2)cc1 (stereo not drawn) | inactive: 25% |

| SMILES | potentiation |
| --- | --- |
| CCc1cc(O)c([N+](=O)[O-])c(C)c1[N+](=O)[O-] | inactive: -2.87% |
| CP(=O)(Nc1ccccc1F)Oc1ccccc1 (stereo not drawn) | inactive: -3.97% |
| O=C(OCCN1CCN(CCOCc2ccccc2)CC1)C(O)(c1ccccc1)c1ccccc1 | inactive: -24.3% |
| Cc1ccccc1CN(C)C(=O)COC(=O)C(O)(c1ccccc1)c1ccccc1 | inactive: -10.2% |
| C[C@H]1OP(=O)(Oc2ccccc2)C[C@@H]2O[C@@H]21 (stereo partly drawn) | inactive: -2.65% |
| C[C@@H]1C=CCP(=O)(Oc2ccccc2)O1 (stereo partly drawn) | inactive: -4.07% |
| CC(=O)c1ccc(N2CC2c2ccncc2)cc1 (stereo not drawn) | inactive: -4.37% |
| N#C/C(=C\c1ccc(N(CCBr)CCBr)cc1)C(N)=O | inactive: -1.51% |
| COC(=O)C1(C)COP(=O)(NCc2ccccc2)OC1 (stereo not drawn) | inactive: -16.7% |
| CC(=O)Nc1ccc([As](=O)(O)O)c(O)c1 | inactive: -7.06% |
| CC(=O)Nc1ccc(Oc2c([N+](=O)[O-])cc([N+](=O)[O-])cc2[N+](=O)[O-])cc1 | inactive: -19.8% |
| O=P(Nc1nccs1)(c1ccccc1)c1ccccc1 | inactive: 13.2% |
| CC(C)C(=O)NC(Sc1ccccc1)C(Cl)(Cl)Cl (stereo not drawn) | inactive: 0.149% |
| CP(=O)(Nc1ccc(SC(F)(F)F)cc1)Oc1ccc(F)cc1 (stereo not drawn) | inactive: -8.13% |
| c1nnnn1CCn1cnnn1 | inactive: 4.65% |
| CCOP(C)(=S)SCC(=O)NC(C)(CC)C(=O)O (stereo not drawn) | inactive: 2.01% |
| CP(=O)(Nc1ccc2c(c1)OCCO2)Oc1ccccc1 (stereo not drawn) | inactive: 12.1% |
| Cc1ccccc1NP(C)(=O)Nc1ccccc1C | inactive: -4.53% |
| CN(C)C1(CNC(=O)c2ccc(Cl)c(S(N)(=O)=O)c2)CCCCC1 | inactive: -6.16% |
| O=P(Nc1ccccn1)(c1ccc(Br)cc1)c1ccc(Br)cc1 | inactive: -5.36% |
| COc1ccc(OP(C)(=O)Nc2cccc(Br)c2)cc1 (stereo not drawn) | inactive: -3.74% |
| COc1ccc(N)c([N+](=O)[O-])c1[N+](=O)[O-] | inactive: -10.2% |
| COc1ccc(NP(C)(=O)Oc2ccccc2OC)cc1 (stereo not drawn) | inactive: 2.32% |
| O=P(Nc1nc2ccccc2s1)(c1ccccc1)c1ccccc1 | inactive: 0.305% |
